Source: patent US20230241155A1, “METHODS AND MEANS FOR MODIFYING HEMODYNAMICS IN INFECTIONS” (Biotempt B.V., priority 2020, published 2023)

Assay: Solubility / aggregation screen of AQGV peptide salts
Excerpt: FIG. 7: Overview of solubility experiments with results in Table 1.

AQGV-tartrate
aggregation in aqueous solution (in relation to peptide-acetate aggregation): (strongly) reduced aggregation
solubility (aggregation point) (solubility in 0.9% NaCl, compared to AQGV-Ac): Higher solubility
